These results are taken from ChEMBL document CHEMBL1152185, “Synthesis of a novel 6,14-epoxymorphinan derivative and its pharmacology” (Bioorg Med Chem Lett, 2008).

Chains of the proteins cited; added tags and fusions are not shown. Lines headed by an entry give the natural chain unless they say otherwise; changes in a name come on top.
UniProt P41144: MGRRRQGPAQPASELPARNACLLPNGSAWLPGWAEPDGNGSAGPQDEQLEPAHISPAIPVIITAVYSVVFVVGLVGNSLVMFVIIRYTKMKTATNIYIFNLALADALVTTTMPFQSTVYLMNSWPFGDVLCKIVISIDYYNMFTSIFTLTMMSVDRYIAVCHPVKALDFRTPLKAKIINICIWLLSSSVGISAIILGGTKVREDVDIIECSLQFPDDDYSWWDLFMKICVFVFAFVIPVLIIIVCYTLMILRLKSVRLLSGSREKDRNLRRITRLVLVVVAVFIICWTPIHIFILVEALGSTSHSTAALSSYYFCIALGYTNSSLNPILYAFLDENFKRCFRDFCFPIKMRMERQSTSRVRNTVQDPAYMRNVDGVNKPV

In the experiment the target is Kappa-type opioid receptor (Cavia porcellus, UniProt P41144).

In the case of `CN(C(=O)Cc1ccc(Cl)c(Cl)c1)C1CCCCC1N1CCCC1` (stereo unspecified), inhibition was half-maximal at 0.303 nM (IC50).
